Assay results from patent US10202345B2, “Substituted azaspiro(4.5)decane derivatives” (priority 2014, dated 2019).

Chains of the proteins cited; added tags and fusions are not shown.
UniProt P41146, whole entry: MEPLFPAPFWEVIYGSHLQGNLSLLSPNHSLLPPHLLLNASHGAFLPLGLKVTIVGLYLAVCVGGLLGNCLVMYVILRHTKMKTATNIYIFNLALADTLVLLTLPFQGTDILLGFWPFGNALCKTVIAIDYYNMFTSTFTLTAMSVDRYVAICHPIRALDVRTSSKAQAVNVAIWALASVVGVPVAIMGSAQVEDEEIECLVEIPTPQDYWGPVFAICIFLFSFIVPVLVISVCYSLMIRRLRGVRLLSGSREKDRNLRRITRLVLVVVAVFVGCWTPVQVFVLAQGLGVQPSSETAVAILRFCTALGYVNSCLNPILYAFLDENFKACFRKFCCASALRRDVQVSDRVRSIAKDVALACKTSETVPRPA
UniProt P35372, whole entry: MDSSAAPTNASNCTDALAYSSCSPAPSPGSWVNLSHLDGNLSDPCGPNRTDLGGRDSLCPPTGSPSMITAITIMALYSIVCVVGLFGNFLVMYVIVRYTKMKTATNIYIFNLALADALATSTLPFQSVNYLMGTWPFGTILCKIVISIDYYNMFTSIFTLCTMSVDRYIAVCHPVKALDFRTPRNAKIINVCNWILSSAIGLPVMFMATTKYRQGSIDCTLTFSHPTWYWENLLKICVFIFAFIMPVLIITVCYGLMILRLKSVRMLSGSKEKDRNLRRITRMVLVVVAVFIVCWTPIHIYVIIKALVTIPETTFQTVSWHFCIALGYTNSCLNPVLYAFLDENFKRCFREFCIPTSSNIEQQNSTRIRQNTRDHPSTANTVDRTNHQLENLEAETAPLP

Columns and labels:
[1] = target: ORL1 receptor (Homo sapiens, UniProt P41146); assay: ORL1 receptor binding assay with 3H-nociceptin/orphanin FQ (WGA-SPA beads); conditions: for Ki: read-out: Ki (ORL1) mean, mean; for % inhibition (ORL1) [1 μM]: test concentration 1 μM
[2] = target: human μ opiate receptor (Homo sapiens, UniProt P35372); assay: μ opiate receptor binding assay with [3H]-naloxone (WGA-SPA beads); conditions: for Ki: read-out: Ki (μ) mean [μm], mean; for % inhibition (μ) [1 μM]: test concentration 1 μM
[3] = test system: rats; assay: Analgesia in the tail flick (focal ray) test in rats, intravenous administration

Compound	Ki [1] [nM]	% inhibition (ORL1) [1 μM] [1] [%]	Ki [2] [nM]	% inhibition (μ) [1 μM] [2] [%]	Tail flick rat, i.v. % MPE (@μg/kg) ([3]; @10 μg/kg) [%@10 % MPE]	Tail flick rat, i.v. ED50 rat [μg/kg] [3] [µg/kg]
COC1(CC(=O)N2CCC3(CCC(c4ccccc4)(N(C)C)CC3)C2)CC1 (stereo not shown)	0.38	96	0.57	100.5		
CN(C)C1(c2cccs2)CCC2(CCN(C(=O)CC3(C#N)CCC3)C2)CC1 (stereo not shown)	0.73	97.5	0.39	100.5		
COC1(CCN2CCC3(CCC(c4cccs4)(N(C)C)CC3)C2)CCC1 (stereo not shown)	0.95	98	0.82	103		
CN(C)C1(C2CCCC2)CCC2(CCN(C(=O)CC3CCC3)C2)CC1 (stereo not shown)	6.25	90	0.69	99.5		
COC1(CC(=O)N2CCC3(CCC(c4cccs4)(N(C)C)CC3)C2)CC1 (stereo not shown)	0.37	93.5	0.66	100.5		
COC(C)(C)CCC(=O)N1CCC2(CCC(c3cccs3)(N(C)C)CC2)C1 (stereo not shown)	1.16	97	0.62	99.5		
COC(C)(C)CCCN1CCC2(CCC(c3ccccc3)(N(C)C)CC2)C1 (stereo not shown)	1.06	96	0.75	100		
CCC(O)(CC)CCN1CCC2(CCC(c3cccs3)(N(C)C)CC2)C1 (stereo not shown)	0.34	98	0.72	101.5		
COC1(CC(=O)N2CCC3(CCC(c4ccccc4)(N(C)C)CC3)C2)CCC1 (stereo not shown)	0.58	97.5	0.55	99.5	100	
COC1(CCC(=O)N2CCC3(CCC(c4ccccc4)(N(C)C)CC3)C2)CCC1 (stereo not shown)	0.52	99	0.44	100.5		
CN(C)C1(c2cccs2)CCC2(CCN(CCC3(C#N)CC3)C2)CC1 (stereo not shown)	5.3	95.5	0.73	99.5		
COC(C)(C)CCN1CC2(CCC(c3ccc(Cl)s3)(N(C)C)CC2)CC1=O (stereo not shown)	2.1	91	0.41	101.5		
CN(C)C1(c2ccccc2)CCC2(CCN(C(=O)CCC3CC3)C2)CC1 (stereo not shown)	0.46	95.5	0.48	99.5		
CN(C)C1(c2cccs2)CCC2(CCN(C(=O)CC3CCC3)C2)CC1 (stereo not shown)	0.24	97.5	0.37	99.5		
CN(C)C1(c2cccs2)CCC2(CCN(CCC3CCC3)C2)CC1 (stereo not shown)	0.52	98	0.6	101.5		52.8
COC1(CCN2CC3(CCC(c4ccc(F)s4)(N(C)C)CC3)CC2=O)CC1 (stereo not shown)	1.29	95.5	0.31	99.5		
CN(C)C1(c2ccccc2)CCC2(CCN(C(=O)CCC3CCC3)C2)CC1 (stereo not shown)	0.5	93.5	0.53	99.5		
CN(C)C1(c2ccccc2)CCC2(CCN(C(=O)CCC(C)(C)C#N)C2)CC1 (stereo not shown)	1.5	98	0.94	100		
CN(C)C1(c2ccccc2)CCC2(CCN(CCC3CCC3)C2)CC1 (stereo not shown)	0.7	96	0.44	97.5		
COC1(CCC(=O)N2CCC3(CCC(c4cccs4)(N(C)C)CC3)C2)CC1 (stereo not shown)	0.51		0.44	102.5		
CN(C)C1(c2ccccc2)CCC2(CCN(C(=O)CCC3(C#N)CCC3)C2)CC1 (stereo not shown)	0.86	94.5	0.83	98.5		

Compound	Ki [1] [nM]	% inhibition (ORL1) [1 μM] [1] [%]	Ki [2] [nM]	% inhibition (μ) [1 μM] [2] [%]	Tail flick rat, i.v. % MPE (@μg/kg) ([3]; @10 μg/kg) [%@10 % MPE]	Tail flick rat, i.v. ED50 rat [μg/kg] [3] [µg/kg]
CN(C)C1(c2cccs2)CCC2(CCN(C(=O)CCC3CC3)C2)CC1 (stereo not shown)	0.72	98	0.52	99		
COC1(CCN2CC3(CCC(c4cccs4)(N(C)C)CC3)CC2=O)CC1 (stereo not shown)	0.91	96.5	0.98	100.5		1.45
CN(C)C1(C2CCCC2)CCC2(CC1)CC(=O)N(CC1CCCCC1)C2 (stereo not shown)	6.4	91	0.8	99		
CN(C)C1(c2cccs2)CCC2(CCN(C(=O)CCC(C)(C)C#N)C2)CC1 (stereo not shown)	1.7	96.5	0.56	101		
CC(C)CCC(=O)N1CCC2(CCC(c3cccs3)(N(C)C)CC2)C1 (stereo not shown)	0.44	93.5	0.4	100		
CC(C)CCC(=O)N1CCC2(CCC(c3ccccc3)(N(C)C)CC2)C1 (stereo not shown)	0.3	98.5	0.36	100		
CN(C)C1(c2cccs2)CCC2(CCN(CCC3CCCO3)C2)CC1 (stereo not shown)	1.14	97	0.57	96.5		
COC1(CCC(=O)N2CCC3(CCC(c4ccccc4)(N(C)C)CC3)C2)CC1 (stereo not shown)	0.34	99.5	0.44	101.5		
CC(C)CCN1CC2(CCC(c3cccs3)(N(C)C)CC2)CC1=O (stereo not shown)	0.53	93.5	0.43	97.5		
CN(C)C1(c2ccccc2)CCC2(CCN(CCCC3CCC3)C2)CC1 (stereo not shown)	1.27	97.33	0.72	98		
CC(C)CCN1CC2(CCC(c3ccccc3)(N(C)C)CC2)CC1=O (stereo not shown)	1.99	93	0.5	99		
CN(C)C1(c2cccs2)CCC2(CCN(C(=O)CCC3(C#N)CCC3)C2)CC1 (stereo not shown)	0.86	95.5	0.37	101		
COC1(CCN2CCC3(CCC(c4ccccc4)(N(C)C)CC3)C2)CCC1 (stereo not shown)	0.83	98	0.69	103.5		
COC1(CCC(=O)N2CCC3(CCC(c4cccs4)(N(C)C)CC3)C2)CCC1 (stereo not shown)	0.47	98.5	0.25	100		
COC(C)(C)CCC(=O)N1CCC2(CCC(c3ccccc3)(N(C)C)CC2)C1 (stereo not shown)	0.56	97.5	0.4	99.5		8.03
CN(C)C1(c2cccs2)CCC2(CCN(CCC3(C#N)CCC3)C2)CC1 (stereo not shown)	2.05	96	0.67	100		
CN(C)C1(c2cccs2)CCC2(CC1)CC(=O)N(CC1(C#N)CCC1)C2 (stereo not shown)	0.46	98.5	0.98	100		
COC(C)(C)CC(=O)N1CCC2(CCC(c3cccs3)(N(C)C)CC2)C1 (stereo not shown)	1.1	94	0.73	100		
CN(C)C1(c2cccs2)CCC2(CCN(C(=O)CCC3CCC3)C2)CC1 (stereo not shown)	0.76	97.5	0.35	99.5		
COC1(CCN2CC3(CCC(c4ccccc4)(N(C)C)CC3)CC2=O)CC1 (stereo not shown)	0.77	97	0.67	100		
COC1(CC(=O)N2CCC3(CCC(c4cccs4)(N(C)C)CC3)C2)CCC1 (stereo not shown)	0.47	98.5	0.44	100.5		1.44
